# Source: US7833698B2, “Method for determining the response to cancer therapy” (Ventana Medical Systems, Inc., priority 2000, dated 2010)
# Test system: patient tumor tissue (metastatic disease)
# Assay: SA-β-Gal quantitation in patient tumor sections after Herceptin treatment (image analysis)
# Format: in vivo, human
# Experimental: Cells were washed in PBS, fixed for 3-5 minutes at room temperature in 2% formaldehyde and 0.2% glutaraldehyde (or in 3% formaldehyde alone), washed, and incubated at 37° C. in fresh senescence-associated β-Gal (SA-β-Gal) staining solution (1 mg/ml 5-bromo-4-chloro-3-indolyl β-D-galactoside (X-Gal), 20 mg/ml dimethylformamide; 40 mM citric acid/sodium phosphate, pH 6.0; 5 mM potassium ferrocyanide; 5 mM potassium ferricyanide; 150 mM NaCl; 2 mM MgCl2. Staining was evident following 2-4 hours of incubation and maximal staining was reached after in 12-16 hours. To detect lysosomal β-Gal, the staining solution was prepared with citric acid/sodium phosphate at pH 4.0 (Baselga et al., 1999, Proceedings of AACR NCI EORTC International Conference, Abstract 98).
# Red and green filters are suitable for practice of the invention. For SA-β-Gal, a green filter (500 nm) is used to determine the total cytoplasmic area stained with red eosin and compared with the blue area stained for SA-β-Gal (600 nm) as determined using a red filter. […] It is recognized that there are various other staining or optical enhancement methods and filtering methods which can be used to optically enhance one particular area or feature over another cell feature (such as Fast green and eosin).
# Frozen tumor sections were fixed and then stained for SA-β-Gal expression. SA-β-Gal^+ cells were quantitated using bright-field microscopy and image analysis. Tissues were obtained from a patient receiving only Herceptin™. The first needle biopsy was obtained from the metastatic disease before initiation of Herceptin™ therapy. On day 1 the patient received 4 mg/1 g.v Herceptin™ for 10 minutes. A second biopsy was taken on day 2, 24 hours after the patient received a second Herceptin™ treatment. A third biopsy was taken on day 14, 24 hours after the patient received a third dose of Herceptin™.
substance,measurement,setting,value
Herceptin: a monoclonal antibody to the oncogenic receptor HER-2/neu,Percentage of Cells Expressing SA-β-Gal in Patient Tissue After Herceptin Treatment,"Day 2 biopsy, 24 hours after second Herceptin treatment",1.5%
same,Percentage of Cells Expressing SA-β-Gal in Patient Tissue After Herceptin Treatment,"Day 14 biopsy, 24 hours after third dose of Herceptin",26%
same,Cellular outcome of Herceptin treatment,SA-β-Gal+ cells having the morphological features of senescence,"resulted in senescence and blocks at G1, G2, and G2M"
